# Experimental data: BindingDB's records for doi:10.7270/Q23J3G57 (n/a, 1994)
# Target: 5-hydroxytryptamine receptor 4 (Rattus norvegicus) (UniProt Q62758)
# Test: Agonist activity against 5-HT4 receptor in rat esophageal muscularis mucosae
smiles,measurement,value
CCN(CC)CCNC(=O)c1cc(Cl)c(N)cc1OC [4-amino-5-chloro-N-[2-(diethylamino)ethyl]-2-methoxy-benzamide;hydrochloride],EC50,794 nM

# Where a name gives a salt, the structure may show the parent alone.
